Experimental data as given in patent US20160256561A1, “PYRROLOBENZODIAZEPINE-ANTIBODY CONJUGATES” (priority 2013, published 2016).

Assays:
Her2(+) BT-474 cells = test system: Her2(+) BT-474 cells
Protocol: Cell culture medium was RPMI 1640 supplemented with L-Glutamine and 10% FBS. Cells were grown at 37° C., 5% CO2, in a humidified incubator.
The cell suspension was diluted to the required seeding density (generally 10^5/ml) and dispensed into 96-well flat bottomed plates. For Alamar blue assay, 100 μl/well was dispensed in black-well plates. For MTS assay, 50 μl/well was dispensed in clear-well plates. A stock solution (1 ml) of ADC (20 μg/ml) was made by dilution of filter-sterile ADC into cell culture medium. A set of 8×10-fold dilutions of stock ADC were made in a 24 well plate by serial transfer of 100 μl onto 900 μl of cell culture medium. Each ADC dilution (100 μl/well for Alamar blue, 50 μl/well for MTS) was dispensed into 4 replicate wells of the 96-well plate, containing cell suspension. Control wells received the same volume of culture medium only.

MDA-MB-468 cells = experiment: In vitro cytotoxicity of ADCs, Alamar blue assay, Her2-negative control; type: cell-based; conditions: 5 days incubation

Substance | cytotoxicity against BT-474 cells (Her2(+) BT-474 cells) | EC50 MDAMB468 (MDA-MB-468 cells) [µg/mL]
Trastuzumab-D | significant cytotoxicity | 0.999
Trastuzumab-C | significant cytotoxicity | 0.6510
